Experimental data published in PubChem BioAssay AID2718 (Broad Institute, 2010).
The list shows a part of the results, in another mix than the full data. Some salts and complexes are drawn in separate pieces, as the source files them; their charges need not balance. Activity calls are given as the source filed them. No stated cut-off is given here; in the data, active means inhibition above about 26% (passing the limit was not always enough); inconclusive means no clear call, values can overlap the other calls.

By UniProt entry, the sequences of proteins in these tests, tags left out.
UniProt O15379, whole entry: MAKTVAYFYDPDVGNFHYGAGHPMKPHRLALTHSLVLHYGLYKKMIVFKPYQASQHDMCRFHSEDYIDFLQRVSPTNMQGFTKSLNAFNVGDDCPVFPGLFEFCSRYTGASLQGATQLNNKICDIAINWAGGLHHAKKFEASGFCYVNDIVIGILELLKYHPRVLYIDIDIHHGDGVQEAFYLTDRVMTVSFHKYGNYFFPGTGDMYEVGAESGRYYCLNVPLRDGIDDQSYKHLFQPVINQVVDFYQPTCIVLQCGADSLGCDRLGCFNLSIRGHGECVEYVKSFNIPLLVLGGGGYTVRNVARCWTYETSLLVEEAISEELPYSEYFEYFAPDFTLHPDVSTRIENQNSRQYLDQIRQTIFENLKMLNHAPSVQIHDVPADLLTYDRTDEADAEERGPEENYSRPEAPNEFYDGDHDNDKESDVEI

What follows are compounds tested against Histone deacetylase 3 (Homo sapiens) (UniProt O15379) (assay: HDAC3 deacetylase inhibitors, primary screen, biochemical, fluorescence, cell-free homogeneous (AID 2718)). Conditions: recombinant HDAC3, fluorogenic peptide/trypsin coupled, at 8.3 µM, hits give high values.

SMILES | inhibition
CCc1ccc(OP(C)(=O)Nc2cccnc2)cc1 (configuration not stated) | inactive: -13.8%
CCN(CC)CC(O)COC(=O)C(O)(c1ccccc1)C1CCCCC1 (configuration not stated) | inactive: -1.7%
CN(C)C(=O)c1c([N+](=O)[O-])cc([N+](=O)[O-])cc1[N+](=O)[O-] | inactive: -1.22%
COc1ccccc1OP(C)(=O)Nc1ccccc1Br (configuration not stated) | inactive: -3.94%
CC(C)(C)c1ccc(OP(C)(=O)O)cc1 | inactive: -1.09%
CP(=O)(Nc1ccc(Cl)cc1)Oc1ccc(F)cc1 (configuration not stated) | inactive: -0.64%
CCOC(=O)c1ccc(NP(C)(=O)Oc2ccc(Cl)cc2)cc1 (configuration not stated) | inactive: -2.16%
CP(=O)(OC12CC3CC(CC(C3)C1)C2)OC12CC3CC(CC(C3)C1)C2 | inactive: 2.42%
Nc1ccc2c(ccc3cccnc32)n1.O=[N+]([O-])c1cc([N+](=O)[O-])c(O)c([N+](=O)[O-])c1 | inactive: -11%
COc1ccccc1OP(C)(=O)Nc1ccc(C)c(C)c1 (configuration not stated) | inactive: 0.322%
COc1ccc(OP(C)(=O)Nc2ccccc2Br)cc1 (configuration not stated) | inactive: 6.48%
Cc1cc(C)cc(OP(C)(=O)Nc2cccc(C(F)(F)F)c2)c1 (configuration not stated) | inactive: 11.3%
CP(=O)(Nc1ccc(Cl)cc1Cl)Oc1ccccc1 (configuration not stated) | inactive: 3.55%
CP(=O)(OCCOc1ccccc1)OCCOc1ccccc1 | inactive: -5.32%
Cc1nc2ccc3ccccc3c2o1.O=[N+]([O-])c1cc([N+](=O)[O-])c(O)c([N+](=O)[O-])c1 | inactive: 3.64%
COc1ccc(OP(C)(=O)Nc2ccccn2)cc1 (configuration not stated) | inactive: -1.79%
CN(C)CCOC(=O)C(O)(c1ccccc1)C1CCCC1 (configuration not stated) | inactive: 6.47%
COc1ccccc1OP(C)(=O)Nc1ccc(Br)cc1 (configuration not stated) | inactive: -0.827%
CP(=O)(Nc1ccccn1)Oc1ccccc1 (configuration not stated) | inactive: -3.97%
CCc1ccc(OP(C)(=O)O)cc1 | inactive: 6.34%
Cc1c(NP(C)(=O)Oc2ccc(C(C)C)cc2)c(=O)n(-c2ccccc2)n1C (configuration not stated) | inactive: -0.294%

SMILES | inhibition
O=[N+]([O-])c1cc([N+](=O)[O-])c(Nc2ccccn2)c([N+](=O)[O-])c1 | inactive: -5.19%
CP(=O)(Nc1ccccc1F)Oc1ccccc1 (configuration not stated) | inactive: -4.83%
CC(C)c1ccc(OP(C)(=O)Nc2ccc(SC(F)(F)F)cc2)cc1 (configuration not stated) | active: 32.2%
COc1ccc2c(c1O)-c1c(O)c(OC)cc3c1[C@H](C2)[N+](C)(C)CC3.O=[N+]([O-])c1cc([N+](=O)[O-])c([O-])c([N+](=O)[O-])c1[O-] | inactive: -3.24%
O=C(OC1CN2CCC1CC2)c1ccc([N+](=O)[O-])cc1 (configuration not stated) | inactive: 2.27%
O=C(OCCN1CCN(CCOCc2ccccc2)CC1)C(O)(c1ccccc1)c1ccccc1 | inactive: -6.09%
CCOC(=O)c1ccc(NP(C)(=O)Oc2ccc(F)cc2)cc1 (configuration not stated) | inactive: 1.22%
COc1ccc(OP(C)(=O)Nc2ccc(SC(F)(F)F)cc2)cc1 (configuration not stated) | inactive: 13%
CP(=O)(Nc1ccccc1)Oc1ccc(F)cc1 (configuration not stated) | inactive: 5.09%
O=[N+]([O-])c1cc([N+](=O)[O-])c(OC2CCCCC2O)c([N+](=O)[O-])c1 (configuration not stated) | inactive: 3.86%
CCCCCOc1ccc(NP(C)(=O)Oc2ccc(Cl)cc2Cl)cc1 (configuration not stated) | inactive: 6.4%
CCN(CC)CCCOC(=O)C(O)(c1ccccc1)C1CCCCC1 (configuration not stated) | inactive: -0.275%
CN(C)CCOC(=O)C(O)(c1ccccc1)C1CCCCC1 (configuration not stated) | inactive: 3.24%
COc1ccc(NP(C)(=O)Oc2ccccc2OC)cc1 (configuration not stated) | inactive: 1.4%
COc1ccc(OP(C)(=O)Nc2cccc(Br)c2)cc1 (configuration not stated) | inactive: 9.02%
O=[N+]([O-])c1ccc(OP2(=O)COCCO2)cc1 (configuration not stated) | inactive: -0.148%
O=[N+]([O-])c1cc([N+](=O)[O-])c(NCC2CCS(=O)(=O)C2)c([N+](=O)[O-])c1 (configuration not stated) | inactive: 2.7%
CCOP(C)(=S)SCC(=O)NC(C)(CC)C(=O)O (configuration not stated) | inactive: -3.68%
CP(=O)(Nc1ccc(SC(F)(F)F)cc1)Oc1ccc(F)cc1 (configuration not stated) | inactive: 11.1%
Cc1ccccc1NP(C)(=O)Nc1ccccc1C | inactive: -8.85%
CP(=O)(Nc1ccc2c(c1)OCCO2)Oc1ccccc1 (configuration not stated) | inactive: 0.499%
